Measurements taken from paper PMC5861220, “The Cytochrome P450-Mediated Metabolism Alternation of Four Effective Lignans From Schisandra chinensis in Carbon Tetrachloride-Intoxicated Rats and Patients With Advanced Hepatocellular Carcinoma” (Frontiers in Pharmacology, 2018).

By UniProt entry, the sequences of proteins in these tests, tags left out. Where a name states a change or a piece, a line headed by the entry shows the natural chain unless it says otherwise.
UniProt P05178: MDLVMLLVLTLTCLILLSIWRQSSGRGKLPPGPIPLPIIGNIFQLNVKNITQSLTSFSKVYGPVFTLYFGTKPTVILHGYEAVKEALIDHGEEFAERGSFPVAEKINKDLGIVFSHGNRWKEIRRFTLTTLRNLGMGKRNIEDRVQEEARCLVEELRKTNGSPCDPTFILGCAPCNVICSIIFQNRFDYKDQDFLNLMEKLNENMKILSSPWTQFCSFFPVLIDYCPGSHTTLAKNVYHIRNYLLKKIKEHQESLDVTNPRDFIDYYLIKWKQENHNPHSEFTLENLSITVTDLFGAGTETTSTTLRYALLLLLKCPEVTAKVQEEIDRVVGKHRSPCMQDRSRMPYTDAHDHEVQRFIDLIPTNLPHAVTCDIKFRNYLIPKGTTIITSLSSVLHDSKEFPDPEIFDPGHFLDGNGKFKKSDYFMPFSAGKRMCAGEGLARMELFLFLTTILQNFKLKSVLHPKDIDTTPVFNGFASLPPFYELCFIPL
UniProt P04799: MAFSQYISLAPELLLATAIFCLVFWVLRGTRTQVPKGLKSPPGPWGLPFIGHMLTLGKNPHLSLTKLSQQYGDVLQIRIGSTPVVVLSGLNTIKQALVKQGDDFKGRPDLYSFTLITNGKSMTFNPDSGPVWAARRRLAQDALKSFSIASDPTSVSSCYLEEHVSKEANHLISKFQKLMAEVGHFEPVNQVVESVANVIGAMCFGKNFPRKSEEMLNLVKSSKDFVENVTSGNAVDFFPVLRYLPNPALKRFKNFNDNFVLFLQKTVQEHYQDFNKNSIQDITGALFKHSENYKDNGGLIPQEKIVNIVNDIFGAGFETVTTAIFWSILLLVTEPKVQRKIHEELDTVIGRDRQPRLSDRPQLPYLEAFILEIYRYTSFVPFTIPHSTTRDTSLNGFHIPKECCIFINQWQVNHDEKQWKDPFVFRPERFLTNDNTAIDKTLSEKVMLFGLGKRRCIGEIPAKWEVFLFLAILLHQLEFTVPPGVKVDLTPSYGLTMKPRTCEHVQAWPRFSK
UniProt P08683: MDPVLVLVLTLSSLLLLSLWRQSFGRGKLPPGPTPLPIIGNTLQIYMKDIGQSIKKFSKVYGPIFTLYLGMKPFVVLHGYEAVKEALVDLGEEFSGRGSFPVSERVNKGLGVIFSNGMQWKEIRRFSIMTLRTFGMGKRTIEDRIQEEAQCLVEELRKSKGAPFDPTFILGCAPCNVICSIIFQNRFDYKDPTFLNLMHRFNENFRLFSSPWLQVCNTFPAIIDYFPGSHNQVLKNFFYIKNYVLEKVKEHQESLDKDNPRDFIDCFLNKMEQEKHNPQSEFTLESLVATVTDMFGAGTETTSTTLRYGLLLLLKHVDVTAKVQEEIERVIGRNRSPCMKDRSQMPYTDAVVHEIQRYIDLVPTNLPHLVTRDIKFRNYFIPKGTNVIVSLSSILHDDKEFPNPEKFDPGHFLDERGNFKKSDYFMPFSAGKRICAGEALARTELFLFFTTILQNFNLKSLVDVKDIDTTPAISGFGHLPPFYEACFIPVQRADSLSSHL
UniProt P10634: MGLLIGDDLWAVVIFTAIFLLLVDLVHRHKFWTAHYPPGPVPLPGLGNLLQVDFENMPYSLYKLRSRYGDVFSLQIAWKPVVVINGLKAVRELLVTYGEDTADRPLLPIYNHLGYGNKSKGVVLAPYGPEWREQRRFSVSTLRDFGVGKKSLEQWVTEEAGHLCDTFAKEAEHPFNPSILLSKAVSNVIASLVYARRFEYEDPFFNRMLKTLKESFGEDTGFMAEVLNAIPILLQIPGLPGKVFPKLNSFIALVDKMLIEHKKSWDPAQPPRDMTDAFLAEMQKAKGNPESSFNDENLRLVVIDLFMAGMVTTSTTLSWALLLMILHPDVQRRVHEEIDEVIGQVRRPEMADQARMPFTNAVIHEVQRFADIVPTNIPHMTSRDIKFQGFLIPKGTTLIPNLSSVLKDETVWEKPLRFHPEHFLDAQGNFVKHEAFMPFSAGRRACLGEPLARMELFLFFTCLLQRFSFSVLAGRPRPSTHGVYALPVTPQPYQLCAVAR
UniProt P05182: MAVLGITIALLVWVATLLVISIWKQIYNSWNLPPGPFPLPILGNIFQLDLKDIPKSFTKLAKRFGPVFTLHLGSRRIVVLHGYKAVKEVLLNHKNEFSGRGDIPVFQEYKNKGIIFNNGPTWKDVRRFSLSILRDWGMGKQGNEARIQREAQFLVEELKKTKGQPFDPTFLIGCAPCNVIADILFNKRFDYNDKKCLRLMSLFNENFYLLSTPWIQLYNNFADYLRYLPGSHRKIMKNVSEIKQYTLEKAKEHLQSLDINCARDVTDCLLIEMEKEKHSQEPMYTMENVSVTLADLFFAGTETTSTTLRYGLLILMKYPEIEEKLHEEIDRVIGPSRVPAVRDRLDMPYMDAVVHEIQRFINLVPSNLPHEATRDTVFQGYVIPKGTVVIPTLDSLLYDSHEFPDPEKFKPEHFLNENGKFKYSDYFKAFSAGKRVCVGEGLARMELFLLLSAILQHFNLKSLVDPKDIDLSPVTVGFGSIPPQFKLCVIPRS

How the values were obtained:
Settings in all cases: liver microsomes of CCl4-intoxicated rats vs normal rats, n = 5
CYP2C6 = CYP2C6 (Rattus norvegicus, UniProt P05178); test: CYP450 activity with probe substrate (diclofenac) in liver microsomes of CCl4-intoxicated rats
CYP1A2 = CYP1A2 (Rattus norvegicus, UniProt P04799); test: CYP450 activity with probe substrate (phenacetin) in liver microsomes of CCl4-intoxicated rats
CYP2C11 = CYP2C11 (Rattus norvegicus, UniProt P08683); test: CYP450 activity with probe substrate (S-mephenytoin) in liver microsomes of CCl4-intoxicated rats
CYP2D2 = CYP2D2 (Rattus norvegicus, UniProt P10634); test: CYP450 activity with probe substrate (dextromethorphan) in liver microsomes of CCl4-intoxicated rats
CYP3A = test: CYP450 activity with probe substrate (midazolam) in liver microsomes of CCl4-intoxicated rats
CYP2E1 = CYP2E1 (Rattus norvegicus, UniProt P05182); test: CYP450 activity with probe substrate (chlorzoxazone) in liver microsomes of CCl4-intoxicated rats

carbon tetrachloride
Decrease of metabolic production rate of 4-hydroxydiclofenac (CYP2C6) (CYP2C6): 77% | Decrease of metabolic production rate of acetaminophen (CYP1A2) (CYP1A2): 43% | Decrease of metabolic production rate of 4-hydroxymephenytoin (CYP2C11) (CYP2C11): 63% | Decrease of metabolic production rate of dextrophan (CYP2D2) (CYP2D2): 79% | Decrease of metabolic production rate of 1-hydroxymidazolam (CYP3A) (CYP3A): 46% | Decrease of metabolic production rate of 6-hydroxychlorzoxazone (CYP2E1) (CYP2E1): 43%
